# Antibody variant affinities, Ab-91 heavy chain, assay 2

Reference: Engelhart et al. 2022, doi:10.1038/s41597-022-01779-4. File: FLAb, binding data.

Antigen: PDVDLGDISGINAS, a 14-residue peptide of the SARS-CoV-2 spike HR2 region.

Each scFv is VL, a (GGGGS)3 linker, VH, as in the parent Ab-91, and differs from it in the CDRs of the heavy chain only.
VL: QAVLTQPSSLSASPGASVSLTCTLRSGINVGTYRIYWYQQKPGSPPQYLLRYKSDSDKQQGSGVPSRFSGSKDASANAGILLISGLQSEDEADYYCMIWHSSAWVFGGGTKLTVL
VH: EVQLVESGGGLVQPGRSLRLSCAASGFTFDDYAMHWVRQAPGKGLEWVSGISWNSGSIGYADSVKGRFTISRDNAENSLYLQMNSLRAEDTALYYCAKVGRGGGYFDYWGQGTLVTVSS

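AAYL51 was designed without a model: most single CDR substitutions and a random sample of double and triple ones. AlphaSeq pools MATa yeast showing the antibodies with MATalpha yeast showing the peptide. Mating (16 h, 30 °C) was followed by selection of diploids and sequencing of their barcodes. Each replicate has its own calibration line, from reference interactions of the BCL2 family. There are three technical replicates.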

Variants are written as CDR1, CDR2 and CDR3 of the heavy chain (limits as in the source). Parent: GFTFDDYAMH, GISWNSGSIGYADSVK, VGRGGGYFDY.
Scale: log10 of Kd in nM, estimated from mating counts; low values are strong binders.
The mean shown is taken over the replicates in which the pair was detected.
Where no diploid with the target was found in that replicate, the entry reads "nd": below detection, most likely a poor binder, though not proof of it.
As a blank, each scFv also met three strains without target: over library AAYL51, 21% of these pairings were detected, typically at 4.54 and seldom below 3.26. For each scFv, signals with the empty controls are counted beside the result.

Variant GFTFDDYAMH | GHSWNSGSIGYADSVK | VGRGWGYFDY gave nd, 4.88, 5.12 (mean 5.00; controls 4 of 9).
Variant GFTFDDYAMH | GISWMSGSIGYADSVK | YGRGGRYFDY gave nd, nd, nd (controls 0 of 9).
Variant GFTLDPYAMH | GISWNSGSIGYADSVK | VGRGGGYFDY gave 3.90, 2.97, 3.91 (mean 3.59; controls 5 of 9).
Variant GFTFDDYAMH | GISWNSGSIGYADSYK | VGRGGGYADI gave nd, 3.46, 2.71 (mean 3.08; controls 0 of 9).
Variant TFQFDDYAMH | GISWNSGIIGYADSVK | VGRGGGYFDY gave 4.93, 4.43, 4.88 (mean 4.75; controls 4 of 9).
Variant GFTFDDYAMH | GISWRSNHIGYADSVK | VGRGGGYFDY gave 5.87, 5.20, nd (mean 5.54; controls 4 of 9).
Variant GFTFDDYAMH | GISWMSGSCGYADSVK | VGRGGGYFDY gave 3.42, 4.24, 3.85 (mean 3.84; controls 2 of 9).
Variant GFTFDDYAMH | GISGSSGSIGYADSQK | VGRGGGYFDY gave 5.34, 5.12, nd (mean 5.23; controls 7 of 9).
Variant GFTFDDYAMH | GISWNSGSIGYADSVK | VGRGKGVFDG gave nd, nd, nd (controls 0 of 9).
Variant GFTFATYAMH | GISWNSGAIGYADSVK | VGRGGGYFDY gave 3.96, nd, nd (controls 2 of 9).
Variant GFYFDDPRMH | GISWNSGSIGYADSVK | VGRGGGYFDY gave nd, nd, nd (controls 3 of 9).
Variant GFTVDDYAMH | GISWKSGSIGYADSVK | VRRGGGYFDY gave 3.73, nd, nd (controls 1 of 9).
Variant GFTFDDHAMT | GISWNSGSEGYADSVK | VGRGGGYFDY gave 6.57, 4.91, 6.50 (mean 5.99; controls 6 of 9).
Variant GFTFDDYAMH | GIHPNSGSIGVADSVK | VGRGGGYFDY gave 5.68, 4.32, 5.07 (mean 5.02; controls 4 of 9).
Variant NFTFDDYAMH | GISWNSGSIGYADSVK | WGRWGGYFDY gave nd, nd, nd (controls 0 of 9).
Variant GFTLDDYAMH | MNSWNSGSIGYADSVK | VGRGGGYFDY gave 6.76, 5.55, 6.53 (mean 6.28; controls 9 of 9).
Variant GFTFDDYAMH | GISWNSGSIGYADSVK | VQRGGGYHTY gave 3.55, 3.60, 3.66 (mean 3.60; controls 8 of 9).
Variant GFTFDDYAMH | GISWNSGSIGYADSRK | VGRIGGYFDY gave nd, nd, nd (controls 0 of 9).
Variant GFTFDDYAMH | GISWNKGSEGYAGSVK | VGRGGGYFDY gave 4.55, nd, nd (controls 1 of 9).
Variant GFYFDDYAMA | GISWNSGSIWYADSVK | VGRGGGYFDY gave nd, nd, nd (controls 0 of 9).
Variant GFTFDDYAMH | GISENSGSIGAADSVK | VGRGGGSFDY gave nd, 4.78, nd (controls 0 of 9).
Variant WFTFDDYAMH | GISENSGSIGYADSVK | VGRGGSYFDY gave nd, nd, nd (controls 0 of 9).
Variant GFTFDDYAMH | GISWNSGSIGYADSVK | VYIGGGYVDY gave 2.56, 2.57, 1.77 (mean 2.30; controls 0 of 9).
Variant GFTFDDYAMH | GISWNSGSLGYADFVK | YGRGGGYFDY gave nd, 4.39, nd (controls 0 of 9).
Variant GFTFDRYAMH | GISWNSGNIGYADSVK | VGRGGGYFDY gave 0.90, 0.88, 0.27 (mean 0.68; controls 6 of 9).
Variant GFTFDDIASH | GISWNSRSIGYADSVK | VGRGGGYFDY gave 5.39, nd, 3.56 (mean 4.47; controls 2 of 9).
Variant GFTFDDYAMH | GISWNSGSIGYADSPK | VGRGGGYYDW gave nd, nd, nd (controls 0 of 9).
Variant GRTFDDYHMH | GISWNSGSIGYADSVL | VGRGGGYFDY gave 4.03, nd, nd (controls 0 of 9).
Variant GFTFDDMAMK | GISWNSGSIGYADSVK | VGRGSGYFDY gave nd, nd, nd (controls 1 of 9).
Variant GFTFDDYAMH | GISWNMGSIGYFDSVK | VGRGGGDFDY gave nd, nd, nd (controls 0 of 9).
Variant KFTFDDYAMH | GISWNSGSIGYADSVA | VGRGDGYFDY gave 3.19, nd, nd (controls 0 of 9).
Variant GFTFDDYAMH | GISINSGSIGYMDSVK | VGRGGGFFDY gave nd, nd, nd (controls 1 of 9).
Variant GFTFDQYAMH | GISWNTGSIGYADSVK | VGRGGGHFDY gave 0.98, 1.14, 0.56 (mean 0.90; controls 3 of 9).
Variant GFTFQDYAMH | GISWNSGSIGIADSVK | VGRGGGYFIY gave 1.65, 3.34, 2.62 (mean 2.54; controls 1 of 9).
Variant GFTFDDYAMH | GISWNSGSIGYAWSVK | VGRGGGYFDG gave 3.05, 4.93, nd (mean 3.99; controls 0 of 9).
Variant GFTWDDYAMH | GISWNSGSIGYNDSVK | VGRGGGYFDY gave nd, 4.75, nd (controls 0 of 9).
Variant GFTFDDYAMH | GISWNSESITYADSVK | VGRGGGYFMY gave 4.28, 4.97, nd (mean 4.62; controls 3 of 9).
Variant GFAFDDYAMH | GISWNSGKIGYADSWK | VGRGGGYFDY gave 4.03, 4.39, nd (mean 4.21; controls 3 of 9).
Variant YFTFLDYAMH | GISWNSGSTGYADSVK | VGRGGGYFDY gave nd, nd, nd (controls 0 of 9).
Variant GFTFDDYAMH | GISWNSGSIGYADSVK | DGRGDDYFDY gave nd, 3.54, 3.95 (mean 3.75; controls 1 of 9).
Variant GFTFDDYAVH | GISWNSGDSGYADSVK | VGRGGGYFDY gave 4.99, 4.63, nd (mean 4.81; controls 6 of 9).
Variant GFTFDDYAMH | GISFKCGSIGYADSVK | VGRGGGYFDY gave nd, 4.69, nd (controls 0 of 9).
Variant GFTFDDYIMH | GIVWNSGSIGYADSKK | VGRGGGYFDY gave nd, nd, nd (controls 1 of 9).
Variant GFTFDDYAMD | GISWNSGSIGYADSKK | VGIGGGYFDY gave nd, nd, nd (controls 0 of 9).
Variant GFTFDDYAMH | GISWPSGSIGYADSVK | VGRGGGYFGF gave 3.07, nd, nd (controls 0 of 9).
Variant GFTFDDYAMH | GISWNSGSGGYADSVK | VGPGGGYFDY gave nd, 3.24, nd (controls 1 of 9).
Variant GFTFDDYVMH | GISWNSGKIGYADTVK | VGRGGGYFDY gave nd, nd, nd (controls 3 of 9).
Variant GFTFDDYAMH | GISINSGSFGYADSVK | VGRGGGYFDY gave 1.65, 2.33, 2.62 (mean 2.20; controls 0 of 9).
Variant GFTCDDYAMH | GISWNGGSIGYADYVK | VGRGGGYFDY gave nd, 6.13, nd (controls 3 of 9).

From the list, the first 7 with no signal in any replicate:

| CDR-H1 | CDR-H2 | CDR-H3 | log10 Kd, replicates | mean, log10 nM | signal with controls |
|---|---|---|---|---|---|
| GFTFDDYAMH | GISWMSGSIGYADSVK | YGRGGRYFDY | nd, nd, nd | nd | 0/9 |
| GFTFDDYAMH | GISWNSGSIGYADSVK | VGRGKGVFDG | nd, nd, nd | nd | 0/9 |
| GFYFDDPRMH | GISWNSGSIGYADSVK | VGRGGGYFDY | nd, nd, nd | nd | 3/9 |
| NFTFDDYAMH | GISWNSGSIGYADSVK | WGRWGGYFDY | nd, nd, nd | nd | 0/9 |
| GFTFDDYAMH | GISWNSGSIGYADSRK | VGRIGGYFDY | nd, nd, nd | nd | 0/9 |
| GFYFDDYAMA | GISWNSGSIWYADSVK | VGRGGGYFDY | nd, nd, nd | nd | 0/9 |
| WFTFDDYAMH | GISENSGSIGYADSVK | VGRGGSYFDY | nd, nd, nd | nd | 0/9 |

For reference, the parent read 1.86 as the reference entry and 0.88 as a member of this library.